This is an account of results in patent publication US8748130B2, “Human papillomavirus / Ii-Key hybrids and methods of use” (priority 2008, dated 2014).

In this experiment the test system is HLA-DR4 molecules. The experiment in a line: Binding of HA-tagged HPV peptides to HLA-DR4+ H9 cells (flow cytometry, anti-HA antibody). Details: species or system human. Conditions: 1x10^6 H9 cells, one hour, no peptide is 1.83%. The method, then:
One million HLA-DR4+H9 cells were incubated with the indicated concentrations of the HPV1-HA tagged peptide HPV7 (◯) or the HPV4-HA tagged peptide HPV17 (□). After analysis by flowcytometry, the percentage of gated cells was plotted against the peptide concentration. The gate was set such that about 98% cells untreated with peptide fell out of the gate.
In order to reveal possible mechanisms for the increased potency of the HPV4 hybrid peptide, the binding affinity of HPV1 compared to HPV4 in HLA-DR4+H9 lymphoma cells was determined. Two peptides (HPV7 and HPV17) linked to an HA tag, allowing the monitoring of binding using an anti-HA monoclonal antibody, were synthesized. Specifically, HPV7 [SEQ ID NO.: 12] consisted of HPV1 extended at the C-terminus with a two-glycine residue spacer and an HA tag (YPYDVPDYA [SEQ ID NO.: 15]), while HPV 17 [SEQ ID NO.: 13] represented HPV4 similarly extended at the C-terminus with a two-glycine residue spacer and an HA tag. Different concentrations of the two peptides were first incubated with 1×10^6 HLA-DR4+ human lymphoma cells (H9 cells) for one hour in culture medium. The binding efficiency was monitored by staining H9 cells with an anti-HA tag monoclonal antibody followed by a FITC-labeled secondary antibody.
Background: A flow cytometer gives signals particle by particle.

In the case of “LRMK-ava- eymldlqpettdl ggypydvpdya [HPV17, HPV4 extended at the C-terminus with a two-glycine residue spacer and an HA tag]”, the “percentage of positive gated cells” value is, setting by setting: (1 nmole peptide) 5.99%; (10 nmole peptide) 12.56%; (25 nmole peptide) 24.88%; (50 nmole peptide) 41.32%; (100 nmole peptide) 44.69%.

On to “lheymldlqpettdl ggypydvpdya (LHEYMLDLQPETTDLGGYPYDVPDYA; GG spacer and HA tag) [HPV7, HPV1 extended at the C-terminus with a two-glycine residue spacer and an HA tag]”, for which the “percentage of positive gated cells” value (1 nmole peptide) amounted to 3.88%; the “percentage of positive gated cells” value (10 nmole peptide) was determined as 7.42%; the “percentage of positive gated cells” value (25 nmole peptide) was determined as 12.2%; the “percentage of positive gated cells” value (50 nmole peptide) is listed as 25.62%; the “percentage of positive gated cells” value (100 nmole peptide) was 39.49%.
